## Membrane permeability of cyclic peptides

Source: CycPeptMPDB (Li et al. 2023), which took these values from Kelly et al. 2021, doi:10.1021/jacs.0c06115.

PAMPA is the parallel artificial membrane permeability assay, which has no cells and reads passive diffusion. Permeability is given as log10 of P in cm/s; higher (less negative) is more permeable.

* CC(=O)N1CCC[C@@H]1C(=O)N(C)[C@H](CC(C)C)C(=O)N[C@@H]1C(=O)N(C)[C@@H](CC(C)C)C(=O)N[C@@H](CC(C)C)C(=O)N[C@@H](CC(C)C)C(=O)N[C@H](C)C(=O)N[C@H](CC(C)C)C(=O)N2CCC[C@H]2C(=O)O[C@@H]1C: PAMPA -6.48 (log10 cm/s)
* CC(=O)N1CCC[C@H]1C(=O)N(C)[C@@H](CC(C)C)C(=O)N[C@@H]1C(=O)N[C@H](CC(C)C)C(=O)N[C@@H](CC(C)C)C(=O)N[C@@H](CC(C)C)C(=O)N(C)[C@@H](C)C(=O)N[C@H](CC(C)C)C(=O)N2CCC[C@H]2C(=O)O[C@@H]1C: PAMPA -6.04 (log10 cm/s)
* CC(=O)N1CCC[C@H]1C(=O)N(C)[C@H](CC(C)C)C(=O)N[C@@H]1C(=O)N(C)[C@@H](CC(C)C)C(=O)N(C)[C@H](CC(C)C)C(=O)N(C)[C@H](CC(C)C)C(=O)N(C)[C@H](C)C(=O)N[C@H](CC(C)C)C(=O)N2CCC[C@H]2C(=O)O[C@@H]1C: PAMPA -5.28 (log10 cm/s)
* CC(=O)N1CCC[C@@H]1C(=O)N(C)[C@H](CC(C)C)C(=O)N[C@@H]1C(=O)N[C@H](CC(C)C)C(=O)N[C@@H](CC(C)C)C(=O)N(C)[C@H](CC(C)C)C(=O)N[C@H](C)C(=O)N[C@H](CC(C)C)C(=O)N2CCC[C@H]2C(=O)O[C@@H]1C: PAMPA -6.01 (log10 cm/s)
* CC(=O)N1CCC[C@H]1C(=O)N(C)[C@@H](CC(C)C)C(=O)N[C@@H]1C(=O)N[C@H](CC(C)C)C(=O)N[C@H](CC(C)C)C(=O)N[C@@H](CC(C)C)C(=O)N(C)[C@H](C)C(=O)N[C@H](CC(C)C)C(=O)N2CCC[C@H]2C(=O)O[C@@H]1C: PAMPA -5.90 (log10 cm/s)
* CC(=O)N1CCC[C@@H]1C(=O)N(C)[C@@H](CC(C)C)C(=O)N[C@@H]1C(=O)N(C)[C@@H](CC(C)C)C(=O)N[C@H](CC(C)C)C(=O)N(C)[C@@H](CC(C)C)C(=O)N(C)[C@@H](C)C(=O)N[C@H](CC(C)C)C(=O)N2CCC[C@H]2C(=O)O[C@@H]1C: PAMPA -5.71 (log10 cm/s)
* CC(=O)N1CCC[C@H]1C(=O)N(C)[C@@H](CC(C)C)C(=O)N[C@@H]1C(=O)N(C)[C@H](CC(C)C)C(=O)N(C)[C@H](CC(C)C)C(=O)N(C)[C@H](CC(C)C)C(=O)N(C)[C@H](C)C(=O)N[C@@H](CC(C)C)C(=O)N2CCC[C@H]2C(=O)O[C@@H]1C: PAMPA -5.19 (log10 cm/s)
* CC(=O)N1CCC[C@H]1C(=O)N(C)[C@H](CC(C)C)C(=O)N[C@@H]1C(=O)N[C@@H](CC(C)C)C(=O)N[C@H](CC(C)C)C(=O)N[C@@H](CC(C)C)C(=O)N[C@@H](C)C(=O)N[C@H](CC(C)C)C(=O)N2CCC[C@H]2C(=O)O[C@@H]1C: PAMPA -6.70 (log10 cm/s)
* CC(=O)N1CCC[C@H]1C(=O)N[C@@H]1C(=O)N[C@H](CC(C)C)C(=O)N[C@@H](CC(C)C)C(=O)N[C@@H](CC(C)C)C(=O)N[C@H](CC(C)C)C(=O)N[C@H](C)C(=O)N[C@@H](CC(C)C)C(=O)N2CCC[C@@H]2C(=O)O[C@@H]1C: PAMPA -6.15 (log10 cm/s)
* CC(=O)N1CCC[C@@H]1C(=O)N(C)[C@@H](CC(C)C)C(=O)N[C@@H]1C(=O)N[C@H](CC(C)C)C(=O)N(C)[C@H](CC(C)C)C(=O)N[C@H](CC(C)C)C(=O)N(C)[C@H](C)C(=O)N[C@H](CC(C)C)C(=O)N2CCC[C@@H]2C(=O)O[C@@H]1C: PAMPA -5.77 (log10 cm/s)
* CC(=O)N1CCC[C@H]1C(=O)N(C)[C@@H](CC(C)C)C(=O)N[C@@H]1C(=O)N(C)[C@@H](CC(C)C)C(=O)N(C)[C@H](CC(C)C)C(=O)N(C)[C@@H](CC(C)C)C(=O)N(C)[C@@H](C)C(=O)N[C@@H](CC(C)C)C(=O)N2CCC[C@H]2C(=O)O[C@@H]1C: PAMPA -5.47 (log10 cm/s)
* CC(=O)N1CCC[C@H]1C(=O)N[C@@H]1C(=O)N[C@H](CC(C)C)C(=O)N(C)[C@@H](CC(C)C)C(=O)N[C@@H](CC(C)C)C(=O)N[C@H](CC(C)C)C(=O)N(C)[C@@H](C)C(=O)N[C@@H](CC(C)C)C(=O)N2CCC[C@@H]2C(=O)O[C@@H]1C: PAMPA -5.51 (log10 cm/s)
* CC(=O)N1CCC[C@H]1C(=O)N(C)[C@@H](CC(C)C)C(=O)N[C@@H]1C(=O)N[C@H](CC(C)C)C(=O)N(C)[C@H](CC(C)C)C(=O)N[C@H](CC(C)C)C(=O)N[C@@H](C)C(=O)N[C@H](CC(C)C)C(=O)N2CCC[C@H]2C(=O)O[C@@H]1C: PAMPA -5.83 (log10 cm/s)
* CC(=O)N1CCC[C@H]1C(=O)N(C)[C@@H](CC(C)C)C(=O)N[C@@H]1C(=O)N(C)[C@@H](CC(C)C)C(=O)N[C@H](CC(C)C)C(=O)N[C@@H](CC(C)C)C(=O)N[C@@H](C)C(=O)N[C@@H](CC(C)C)C(=O)N2CCC[C@H]2C(=O)O[C@@H]1C: PAMPA -6.69 (log10 cm/s)
* CC(=O)N1CCC[C@@H]1C(=O)N(C)[C@@H](CC(C)C)C(=O)N[C@@H]1C(=O)N[C@H](CC(C)C)C(=O)N(C)[C@H](CC(C)C)C(=O)N(C)[C@@H](CC(C)C)C(=O)N(C)[C@@H](C)C(=O)N[C@@H](CC(C)C)C(=O)N2CCC[C@H]2C(=O)O[C@@H]1C: PAMPA -5.30 (log10 cm/s)

Excerpt, the opening 2 entries:

| SMILES | PAMPA (log10 cm/s) |
|---|---|
| CC(=O)N1CCC[C@@H]1C(=O)N(C)[C@H](CC(C)C)C(=O)N[C@@H]1C(=O)N(C)[C@@H](CC(C)C)C(=O)N[C@@H](CC(C)C)C(=O)N[C@@H](CC(C)C)C(=O)N[C@H](C)C(=O)N[C@H](CC(C)C)C(=O)N2CCC[C@H]2C(=O)O[C@@H]1C | -6.48 |
| CC(=O)N1CCC[C@H]1C(=O)N(C)[C@@H](CC(C)C)C(=O)N[C@@H]1C(=O)N[C@H](CC(C)C)C(=O)N[C@@H](CC(C)C)C(=O)N[C@@H](CC(C)C)C(=O)N(C)[C@@H](C)C(=O)N[C@H](CC(C)C)C(=O)N2CCC[C@H]2C(=O)O[C@@H]1C | -6.04 |

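Conditions beyond the assay type are not listed; see the original paper. The list need not hold all peptides of the study. Peptides that the database sets to -10, its floor, are left out.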